Assay [1] deals with cloned human muscarinic receptor subtype M2 (Homo sapiens, UniProt P08172). Put plainly: Receptor binding, N-[3H]-methyl-scopolamine, M2. The settings on record: for M2 Hill slope: numbers in parentheses; for M2 receptor binding pKi: [3H]NMS 0.5 nM, mean ± SD of 3 experiments.
In assay [2] the target is cloned human muscarinic receptor subtype M1 (Homo sapiens, UniProt P11229). Put plainly: Receptor binding, N-[3H]-methyl-scopolamine, M1. The settings on record: for M1 Hill slope: numbers in parentheses; for M1 receptor binding pKi: [3H]NMS 0.5 nM, mean ± SD of 3 experiments.
The target of assay [3] is cloned human muscarinic receptor subtype M4 (Homo sapiens, UniProt P08173). Put plainly: Receptor binding, N-[3H]-methyl-scopolamine, M4. The following applies: for M4 Hill slope: numbers in parentheses; for M4 receptor binding pKi: [3H]NMS 0.5 nM, mean ± SD of 3 experiments.
Assay [4] addresses cloned human muscarinic receptor subtype M3 (Homo sapiens, UniProt P20309). Put plainly: Receptor binding, N-[3H]-methyl-scopolamine, M3. The following applies: for M3 Hill slope: numbers in parentheses; for M3 receptor binding pKi: [3H]NMS 0.5 nM, mean ± SD of 3 experiments; for Selectivity M3/M2: M3 versus M2 binding affinity; for M3/M2 subtype selectivity (in words): from receptor binding pKi.

The chains behind the UniProt entries cited, without tags or fusion partners. Where a name states a change or a piece, a line headed by the entry shows the natural chain unless it says otherwise.
UniProt P08172, whole entry, looked up: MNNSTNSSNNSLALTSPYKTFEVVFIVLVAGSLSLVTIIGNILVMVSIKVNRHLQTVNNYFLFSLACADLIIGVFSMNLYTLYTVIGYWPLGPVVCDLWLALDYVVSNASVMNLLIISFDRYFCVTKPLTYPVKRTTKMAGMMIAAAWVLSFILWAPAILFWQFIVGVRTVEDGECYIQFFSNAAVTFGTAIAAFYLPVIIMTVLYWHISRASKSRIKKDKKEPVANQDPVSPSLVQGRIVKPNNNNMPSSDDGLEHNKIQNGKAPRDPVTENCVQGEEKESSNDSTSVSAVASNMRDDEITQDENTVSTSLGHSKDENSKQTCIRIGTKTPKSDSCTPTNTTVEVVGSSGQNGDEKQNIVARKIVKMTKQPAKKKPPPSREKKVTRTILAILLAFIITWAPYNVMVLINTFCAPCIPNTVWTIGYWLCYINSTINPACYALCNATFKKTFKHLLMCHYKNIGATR
UniProt P11229: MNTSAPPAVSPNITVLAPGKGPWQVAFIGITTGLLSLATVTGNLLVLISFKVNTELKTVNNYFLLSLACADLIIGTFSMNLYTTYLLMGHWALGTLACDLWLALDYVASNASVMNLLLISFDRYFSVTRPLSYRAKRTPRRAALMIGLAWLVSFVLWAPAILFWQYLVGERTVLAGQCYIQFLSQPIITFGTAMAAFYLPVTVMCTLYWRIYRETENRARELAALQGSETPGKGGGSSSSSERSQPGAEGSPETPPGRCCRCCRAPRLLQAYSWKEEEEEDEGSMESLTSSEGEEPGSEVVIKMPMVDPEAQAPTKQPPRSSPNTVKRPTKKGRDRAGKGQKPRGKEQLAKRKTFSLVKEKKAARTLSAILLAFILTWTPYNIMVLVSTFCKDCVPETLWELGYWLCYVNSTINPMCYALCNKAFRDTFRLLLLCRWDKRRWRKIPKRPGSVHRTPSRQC
UniProt P08173, whole entry, looked up: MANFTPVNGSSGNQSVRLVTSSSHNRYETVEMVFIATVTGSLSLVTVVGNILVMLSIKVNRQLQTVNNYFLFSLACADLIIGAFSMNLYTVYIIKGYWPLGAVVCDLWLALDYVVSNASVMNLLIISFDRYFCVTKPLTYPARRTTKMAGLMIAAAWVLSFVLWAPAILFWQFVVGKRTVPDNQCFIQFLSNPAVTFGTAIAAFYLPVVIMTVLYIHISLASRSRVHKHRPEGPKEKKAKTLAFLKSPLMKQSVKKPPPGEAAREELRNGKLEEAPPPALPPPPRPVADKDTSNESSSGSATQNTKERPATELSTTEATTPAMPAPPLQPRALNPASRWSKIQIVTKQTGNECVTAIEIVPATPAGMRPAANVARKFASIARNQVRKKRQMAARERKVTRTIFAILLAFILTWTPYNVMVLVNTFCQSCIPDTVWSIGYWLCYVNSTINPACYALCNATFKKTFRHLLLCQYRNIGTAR
UniProt P20309, whole entry, looked up: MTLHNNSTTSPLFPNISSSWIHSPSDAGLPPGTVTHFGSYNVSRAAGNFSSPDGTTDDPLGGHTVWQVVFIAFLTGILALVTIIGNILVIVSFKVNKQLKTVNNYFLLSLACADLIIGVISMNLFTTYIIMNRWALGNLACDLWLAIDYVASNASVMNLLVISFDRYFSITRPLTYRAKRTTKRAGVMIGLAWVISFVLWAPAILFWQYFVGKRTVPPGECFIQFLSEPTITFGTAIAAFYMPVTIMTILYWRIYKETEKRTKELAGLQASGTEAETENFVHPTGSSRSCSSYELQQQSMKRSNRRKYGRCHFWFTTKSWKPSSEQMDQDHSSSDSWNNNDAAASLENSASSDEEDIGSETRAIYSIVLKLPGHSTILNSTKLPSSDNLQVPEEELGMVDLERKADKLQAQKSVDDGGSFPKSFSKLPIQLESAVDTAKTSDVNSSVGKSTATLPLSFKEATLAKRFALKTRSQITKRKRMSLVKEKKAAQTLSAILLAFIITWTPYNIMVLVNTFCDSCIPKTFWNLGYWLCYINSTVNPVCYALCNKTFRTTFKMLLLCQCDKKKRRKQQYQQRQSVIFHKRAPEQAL

In a further assay the test system is rabbit eyes (pupil size). Put plainly: Mydriatic studies, topical administration. The class given is in vivo. The following applies: for AUCeff 0-168 h (area under the mydriatic response-time curve) / Rmax (maximum % change in pupil size): Table 8, topical 0.1 mL.
The subject of assay [5] is cloned human muscarinic receptors (M1-M4 subtypes). Put plainly: Receptor binding, values stated across subtypes M1-M4.

SMILES strings stand for the structures.

As for `C[N@@+]1(CC(=O)[O-])CC[C@@H](OC(=O)[C@](O)(c2ccccc2)C2CCCC2)C1`, in assay [1] (Table 6), the “M2 Hill slope” value is listed as “(0.85 ± 0.21)”. The “M1 Hill slope” value in assay [2] (Table 6) is “(0.97 ± 0.13)”. Further, in assay [3] (Table 6), the “M4 Hill slope” value is on record as “(0.93 ± 0.01)”. Besides, the “M3 Hill slope” value in assay [4] (Table 6) was “(1.06 ± 0.04)”.
For the molecule `COC(=O)C[N+]1(C)CCC(OC(=O)C(O)(c2ccccc2)C2CCCC2)C1.[Br-]` (racemic), the “M2 Hill slope” value in assay [1] (Table 6) is on record as “(1.25 ± 0.08)”. Further, the “M1 Hill slope” value in assay [2] (Table 6) is reported as “(1.02 ± 0.12)”. Besides, in assay [3] (Table 6), the “M4 Hill slope” value was “(1.12 ± 0.05)”. In addition, in assay [4] (Table 6), the “Selectivity M3/M2 (M3/M2 affinity ratio)” value was determined as 1.0 ± 0.0 times and the “M3 Hill slope” value is recorded as “(1.17 ± 0.18)”.
Take `C[N@+]1(CC(=O)[O-])CC[C@@H](OC(=O)[C@@](O)(c2ccccc2)C2CCCC2)C1`: in the assay on rabbit eyes (pupil size) (Conc. 0.1%), the “AUCeff 0-168 h (area under the mydriatic response-time curve)” value (“AUCeff 0-168 h” for short) came out at 13 ± 15 and the “Rmax (maximum % change in pupil size)” value turned out to be 3.87 ± 4.49%. Also, in the assay with rabbit eyes (pupil size) (Conc. 0.4%), the “AUCeff 0-168 h” value amounted to 37 ± 3 and the “Rmax (maximum % change in pupil size)” value was 14.88 ± 1.19%. Further, in assay [1] (Table 6), the “M2 receptor binding pKi” value came to 6.35 ± 0.01 and the “M2 Hill slope” value is given as “(1.01 ± 0.01)”. Also, in assay [2] (Table 6), the “M1 receptor binding pKi” value stood at 6.67 ± 0.06 and the “M1 Hill slope” value is given as “(1.08 ± 0.03)”. Moreover, in assay [3] (Table 6), the “M4 receptor binding pKi” value is 6.47 ± 0.01 and the “M4 Hill slope” value is “(1.30 ± 0.28)”. Moreover, in assay [4] (Table 6), the “Selectivity M3/M2 (M3/M2 affinity ratio)” value is recorded as 0.7 ± 0.0 times, the “M3 receptor binding pKi” value was determined as 6.22 ± 0.05 and the “M3 Hill slope” value is listed as “(1.04 ± 0.08)”.
Regarding `C[N@@+]1(CC(=O)[O-])CC[C@H](OC(=O)[C@@](O)(c2ccccc2)C2CCCC2)C1`, in the assay on rabbit eyes (pupil size) (Conc. 0.1%), the “AUCeff 0-168 h” value is given as 0 ± 0 and the “Rmax (maximum % change in pupil size)” value was determined as 0.00 ± 0.00%. Moreover, in the assay on rabbit eyes (pupil size) (Conc. 0.4%), the “AUCeff 0-168 h” value is reported as 0 ± 0 and the “Rmax (maximum % change in pupil size)” value stood at 0.00 ± 0.00%.
For `C[N@@+]1(CC(=O)[O-])CC[C@@H](OC(=O)[C@@](O)(c2ccccc2)C2CCCC2)C1`, in the assay with rabbit eyes (pupil size) (Conc. 0.1%), the “AUCeff 0-168 h” value was determined as 0 ± 0 and the “Rmax (maximum % change in pupil size)” value turned out to be 0.00 ± 0.00%. The “M2 Hill slope” value in assay [1] (Table 6) is listed as “(1.24 ± 0.07)”. Also, the “M1 Hill slope” value in assay [2] (Table 6) is listed as “(1.06 ± 0.05)”. In addition, the “M4 Hill slope” value in assay [3] (Table 6) was “(0.88 ± 0.04)”. For the same molecule, in assay [4] (Table 6), the “Selectivity M3/M2 (M3/M2 affinity ratio)” value came to 0.8 ± 0.1 times and the “M3 Hill slope” value was “(1.02 ± 0.12)”.
For `C[N@+]1(CC(=O)[O-])CC[C@@H](OC(=O)[C@](O)(c2ccccc2)C2CCCC2)C1`, in assay [1] (Table 6), the “M2 Hill slope” value is “(0.82 ± 0.15)”. Also, the “M1 Hill slope” value in assay [2] (Table 6) is “(1.25 ± 0.01)”. Besides, in assay [3] (Table 6), the “M4 Hill slope” value was “(1.00 ± 0.06)”. Also, the “M3 Hill slope” value in assay [4] (Table 6) was “(0.84 ± 0.17)”.
Regarding `CCOC(=O)C[N+]1(C)CCC(OC(=O)[C@](O)(c2ccccc2)C2CCCC2)C1.[Br-]` (stereo partly drawn), in the assay with rabbit eyes (pupil size) (topical, 0.2% glycopyrrolate, 1.0% Compound (d) and Compound (cc)), the “Recovery time (pupil of treated eye within less than 1 mm of control)” value was found to be 24 h. The “M2 Hill slope” value in assay [1] (Table 1) and in assay [1] (Table 6) was “(0.92 ± 0.01)” each time. Besides, the “M1 Hill slope” value in assay [2] (Table 1) and in assay [2] (Table 6) was “(0.86 ± 0.08)” in each case. For the same molecule, the “M4 Hill slope” value in assay [3] (Table 1) and in assay [3] (Table 6) was “(0.89 ± 0.02)” in each case. For the same molecule, the Selectivity M3/M2 in assay [4] (Table 1) is 0.9. The “M3 Hill slope” value in assay [4] (Table 1) and in assay [4] (Table 6) was “(1.09 ± 0.15)” each time. Also, in assay [4], the “M3/M2 subtype selectivity (in words)” value is recorded as “no M3/M2 subtype selectivity”. The “pKi (range over M1-M4)” value in assay [5] is 8.7-8.9.
Take `COC(=O)C[N+]1(C)CCC(OC(=O)[C@](O)(c2ccccc2)C2CCCC2)C1.[Br-]` (stereo partly drawn): the “M2 Hill slope” value in assay [1] (Table 1) and in assay [1] (Table 6) was “(1.10 ± 0.11)” in each case. The “M1 Hill slope” value in assay [2] (Table 1) and in assay [2] (Table 6) was “(0.83 ± 0.11)” each time. Besides, the “M4 Hill slope” value in assay [3] (Table 1) and in assay [3] (Table 6) was “(0.83 ± 0.01)” each time. In assay [4] (Table 1), this molecule gave a Selectivity M3/M2 of 1.4. In addition, the “M3 Hill slope” value in assay [4] (Table 1) and in assay [4] (Table 6) was “(0.83 ± 0.01)” each time. In addition, in assay [4], the “M3/M2 subtype selectivity (in words)” value is listed as “no M3/M2 subtype selectivity”. Besides, in assay [5], the “pKi (range over M1-M4)” value is listed as 8.9-9.5.
For `COC(=O)C[N+]1(C)CC[C@@H](OC(=O)[C@@](O)(c2ccccc2)C2CCCC2)C1.[Br-]` (stereo partly drawn), the “M2 Hill slope” value in assay [1] (Table 6) was “(1.09 ± 0.18)”. The “M1 Hill slope” value in assay [2] (Table 6) was “(0.98 ± 0.06)”. The “M4 Hill slope” value in assay [3] (Table 6) is recorded as “(1.11 ± 0.03)”. Besides, in assay [4] (Table 6), the “Selectivity M3/M2 (M3/M2 affinity ratio)” value was 0.6 ± 0.1 times and the “M3 Hill slope” value is reported as “(1.15 ± 0.13)”. The “pKi (range over M1-M4)” value in assay [5] is 7.0-7.6.
For the molecule `C[N@+]1(CC(=O)[O-])CC[C@H](OC(=O)[C@@](O)(c2ccccc2)C2CCCC2)C1`, in assay [1] (Table 6), the “M2 Hill slope” value was “(1.20 ± 0.02)”. The “M1 Hill slope” value in assay [2] (Table 6) is reported as “(1.13 ± 0.10)”. Further, the “M4 Hill slope” value in assay [3] (Table 6) is on record as “(0.95 ± 0.18)”. Besides, in assay [4] (Table 6), the “Selectivity M3/M2 (M3/M2 affinity ratio)” value is reported as 1.0 ± 0.2 times and the “M3 Hill slope” value is given as “(1.03 ± 0.01)”.
Turning to `C[N@@+]1(CC(=O)[O-])CC[C@H](OC(=O)[C@](O)(c2ccccc2)C2CCCC2)C1`, in the assay on rabbit eyes (pupil size) (Conc. 0.1%), the “AUCeff 0-168 h” value came out at 216 ± 29 and the “Rmax (maximum % change in pupil size)” value was 43.90 ± 7.63%. Further, in assay [1] (Table 6), the “M2 receptor binding pKi” value was determined as 7.39 ± 0.09 and the “M2 Hill slope” value is “(0.80 ± 0.22)”. Besides, in assay [2] (Table 6), the “M1 receptor binding pKi” value was found to be 7.98 ± 0.01 and the “M1 Hill slope” value was “(1.02 ± 0.03)”. In addition, in assay [3] (Table 6), the “M4 receptor binding pKi” value was 8.15 ± 0.06 and the “M4 Hill slope” value is listed as “(1.01 ± 0.06)”. In addition, in assay [4] (Table 6), the “Selectivity M3/M2 (M3/M2 affinity ratio)” value is reported as 5.2 ± 0.7 times, the “M3 receptor binding pKi” value came to 8.04 ± 0.01 and the “M3 Hill slope” value was “(0.96 ± 0.03)”.
For `CCOC(=O)C[N+]1(C)CCC(OC(=O)C(O)(c2ccccc2)C2CCCC2)C1.[Br-]` (racemic), in assay [1] (Table 6), the “M2 Hill slope” value was “(1.23 ± 0.06)”. Further, the “M1 Hill slope” value in assay [2] (Table 6) is reported as “(0.91 ± 0.09)”. The “M4 Hill slope” value in assay [3] (Table 6) is on record as “(1.18 ± 0.09)”. The “M3 Hill slope” value in assay [4] (Table 6) is listed as “(1.18 ± 0.08)”.
In the same order, the values of `C[N@+]1(CC(=O)[O-])CC[C@H](OC(=O)[C@](O)(c2ccccc2)C2CCCC2)C1` are “(1.00 ± 0.04)”, “(1.01 ± 0.01)”, “(0.86 ± 0.06)” and “(0.80 ± 0.21)”.
